# Experimental data taken from BindingDB's records for doi:10.1016/s0960-894x(99)00197-3 (The R. W. Johnson Pharmaceutical Research Institute, 1999).
# Experiment: Activation of human platelet aggregation (gel-filtered platelets) induced by alpha thrombin
smiles,measurement,value
"N=C(N)NCCC[C@H](NC(=O)[C@H](CC1CCCCC1)NC(=O)c1nnc(NC(=O)C(F)=Cc2ccccc2)[nH]1)C(=O)N[C@@H](Cc1ccccc1)C(N)=O [5-((Z)-2-Fluoro-3-phenyl-acryloylamino)-1H-[1,2,4]triazole-3-carboxylic acid {(S)-1-[(S)-1-((S)-1-carbamoyl-2-phenyl-ethylcarbamoyl)-4-guanidino-butylcarbamoyl]-2-cyclohexyl-ethyl}-amide]",EC50,1700 nM
